In PubChem BioAssay (Tox21):
This is a selection; strong and weak results do not stand in their true shares. Inconclusive results are not listed. Calls of active or inactive are those of the source. Unless noted, the call rests on the fitted dose curve; in most records, active means well fitted curve in the direction sought with a large enough effect in the repeat runs; inconclusive means weak or mixed curves; inactive means no such curve, though single readings can be large; an effect the other way counts as inactive or inconclusive.

Sequences of proteins named here, by UniProt entry; tags and fusion partners are left off.
UniProt P11473, whole entry: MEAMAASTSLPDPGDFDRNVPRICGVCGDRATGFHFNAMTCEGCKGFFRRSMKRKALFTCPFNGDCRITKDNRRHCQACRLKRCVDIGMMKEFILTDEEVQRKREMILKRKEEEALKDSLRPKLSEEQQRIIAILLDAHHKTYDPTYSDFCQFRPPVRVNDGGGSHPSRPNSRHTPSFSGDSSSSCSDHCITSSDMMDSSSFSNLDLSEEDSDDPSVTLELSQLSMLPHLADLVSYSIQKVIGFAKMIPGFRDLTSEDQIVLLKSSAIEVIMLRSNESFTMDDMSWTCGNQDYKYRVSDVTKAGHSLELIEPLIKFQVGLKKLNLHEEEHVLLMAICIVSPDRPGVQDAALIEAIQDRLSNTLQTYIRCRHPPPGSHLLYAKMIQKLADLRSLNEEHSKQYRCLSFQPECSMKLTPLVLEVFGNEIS
UniProt Q03181, whole entry: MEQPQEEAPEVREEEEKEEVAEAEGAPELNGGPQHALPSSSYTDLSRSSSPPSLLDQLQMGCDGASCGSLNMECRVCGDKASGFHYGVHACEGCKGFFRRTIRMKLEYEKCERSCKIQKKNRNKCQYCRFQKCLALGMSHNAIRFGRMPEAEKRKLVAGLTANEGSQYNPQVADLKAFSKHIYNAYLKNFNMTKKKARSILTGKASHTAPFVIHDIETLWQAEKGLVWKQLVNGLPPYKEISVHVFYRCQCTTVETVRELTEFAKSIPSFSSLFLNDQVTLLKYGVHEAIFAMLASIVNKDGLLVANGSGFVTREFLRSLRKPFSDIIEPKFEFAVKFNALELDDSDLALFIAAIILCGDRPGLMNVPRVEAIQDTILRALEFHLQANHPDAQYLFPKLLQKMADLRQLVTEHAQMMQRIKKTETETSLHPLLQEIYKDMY
UniProt Q96RI1, whole entry: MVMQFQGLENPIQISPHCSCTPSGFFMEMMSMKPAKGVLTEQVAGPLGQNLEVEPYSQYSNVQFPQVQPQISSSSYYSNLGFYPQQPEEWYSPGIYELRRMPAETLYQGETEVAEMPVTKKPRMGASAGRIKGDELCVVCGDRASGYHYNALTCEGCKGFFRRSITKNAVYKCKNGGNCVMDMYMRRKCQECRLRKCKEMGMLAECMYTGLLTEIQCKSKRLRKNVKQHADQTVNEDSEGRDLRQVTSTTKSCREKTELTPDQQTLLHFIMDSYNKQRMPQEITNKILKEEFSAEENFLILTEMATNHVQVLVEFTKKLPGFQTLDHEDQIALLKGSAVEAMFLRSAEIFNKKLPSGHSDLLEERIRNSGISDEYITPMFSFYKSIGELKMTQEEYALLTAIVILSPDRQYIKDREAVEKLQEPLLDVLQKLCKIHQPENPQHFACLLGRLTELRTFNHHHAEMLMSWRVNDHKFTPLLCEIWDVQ
UniProt P37231, whole entry: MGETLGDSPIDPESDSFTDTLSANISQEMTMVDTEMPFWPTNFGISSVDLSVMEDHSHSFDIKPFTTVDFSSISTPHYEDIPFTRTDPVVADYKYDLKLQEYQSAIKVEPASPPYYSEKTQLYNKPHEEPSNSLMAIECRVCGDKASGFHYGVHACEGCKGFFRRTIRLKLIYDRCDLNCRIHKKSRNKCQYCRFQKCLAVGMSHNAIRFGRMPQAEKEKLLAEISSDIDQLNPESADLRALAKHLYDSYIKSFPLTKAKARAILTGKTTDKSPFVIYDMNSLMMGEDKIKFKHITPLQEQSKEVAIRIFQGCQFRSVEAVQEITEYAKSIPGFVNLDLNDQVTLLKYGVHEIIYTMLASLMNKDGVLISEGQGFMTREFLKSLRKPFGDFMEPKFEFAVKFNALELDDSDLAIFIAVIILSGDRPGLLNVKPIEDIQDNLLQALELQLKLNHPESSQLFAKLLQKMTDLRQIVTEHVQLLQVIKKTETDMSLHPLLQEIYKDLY

Columns and labels:
[1] = qHTS assay to identify small molecule antagonists of the peroxisome proliferator-activated receptor gamma (PPARg) signaling pathway - cell viability counter screen (AID 743194); conditions: PPARg-bla HEK293H viability, CellTiter-Glo luminescence, 17 h, co-treated with 50 nM rosiglitazone; further: nearly all actives have a fitted effect of over 55% in size
Procedure, shortened: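 Viability was measured as CellTiter-Glo luminescence in GeneBLAzer PPARg UAS-bla HEK293H cells. These cells had been exposed 17 h at 37 C to compounds together with rosiglitazone at 50 nM final, with the beta-lactamase readout taken in the same wells.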

[2] = qHTS assay for small molecule activators of the heat shock response signaling pathway - cell viability counter screen (AID 743209); conditions: HSE-bla HeLa viability, CellTiter-Glo luminescence, 5 h; further: nearly all actives have a fitted effect of over 50% in size
Procedure, shortened: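 HSE-bla HeLa; 1500 cells/well; overnight 37 C, 5% CO2; compound 5 h 37 C; LiveBLAzer B/G substrate 2.5 h RT; CellTiter-Glo 30 min RT; luminescence.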

[3] = qHTS assay for small molecule activators of the heat shock response signaling pathway (AID 743210; active means well fitted activation curve with a large enough effect in the signal ratio in the repeat runs, with a control signal flat, not every such curve was filed as active; the % refers to the signal ratio); conditions: HeLa HSE-bla reporter, beta-lactamase ratio, 5 h; at 62.6 µM (top of the series)
Procedure, shortened: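 Compound exposure lasted 5 h at 37 C in HeLa cells carrying a heat-shock-element-driven beta-lactamase reporter. Read-out: fluorescence intensity after 2.5 h room-temperature loading with LiveBLAzer B/G FRET substrate.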

[4] = qHTS assay to identify small molecule agonists of the peroxisome proliferator-activated receptor delta (PPARd) signaling pathway - cell viability counter screen (AID 743211); conditions: PPARd-bla HEK293H viability, CellTiter-Glo luminescence, 17 h; further: nearly all actives have a fitted effect of over 55% in size
Procedure, shortened: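 Multiplexed format: after the 2 h room-temperature LiveBLAzer B/G FRET step, CellTiter-Glo was added to the same wells. Luminescence after 30 min gave cell viability; compound exposure was 17 h at 37C.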

[5] = qHTS assay to identify small molecule antagonists of the peroxisome proliferator-activated receptor delta (PPARd) signaling pathway - cell viability counter screen (AID 743213); conditions: PPARd-bla HEK293H viability, CellTiter-Glo luminescence, 17 h; further: nearly all actives have a fitted effect of over 50% in size
Procedure, shortened: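 Same-well viability: cells pre-incubated 5 h, dosed with compound plus 300 nM L165041, kept 17 h at 37 C, FRET substrate 2 h RT, then CellTiter-Glo 30 min RT and luminescence.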

[6] = qHTS assay to identify small molecule agonists of the farnesoid-X-receptor (FXR) signaling pathway - cell viability counter screen (AID 743218); conditions: FXR-bla HEK293T viability, CellTiter-Glo luminescence, 16 h; further: nearly all actives have a fitted effect of over 45% in size
Procedure, shortened: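 Luminescence from CellTiter-Glo, read after 30 min at RT, reports viability of GeneBLAzer FXR-UAS-bla HEK 293T cells treated 16 h with compounds in the wells used for the beta-lactamase reporter.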

[7] = qHTS assay to identify small molecule antagonists of the farnesoid-X-receptor (FXR) signaling pathway - cell viability counter screen (AID 743221; active means well fitted cell-killing curve with a large enough effect in the repeat runs, not every such curve was filed as active; further: nearly all actives have a fitted effect of over 50% in size); conditions: FXR-bla HEK293T viability, CellTiter-Glo luminescence, 16 h
Procedure, shortened: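 CellTiter-Glo, 30 min RT, luminescence; same wells as the LiveBLAzer FRET read. Cells: FXR-UAS-bla HEK 293T. Treatment: compound with chenodeoxycholic acid 50 uM final, 16 h at 37 C.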

[8] = molecular target: Vitamin D3 receptor (Homo sapiens) (UniProt P11473); assay: qHTS assay to identify small molecule agonists of the vitamin D receptor (VDR) signaling pathway (AID 743222; calls by dose curve); conditions: HEK293T VDR-UAS-bla, beta-lactamase FRET ratio, 16 h
Procedure, shortened: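 Beta-lactamase reporter readout (LiveBLAzer B/G FRET, 2 h RT) in VDR-bla cells after 16 h compound treatment at 37C, 5% CO2; cells pre-incubated 4 h before pin transfer of DMSO solutions.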

[9] = molecular target: Vitamin D3 receptor (Homo sapiens) (UniProt P11473); assay: qHTS assay to identify small molecule antagonists of the vitamin D receptor (VDR) signaling pathway (AID 743223; active means well fitted inhibition curve with a large enough effect in the signal ratio in the repeat runs, not every such curve was filed as active; the % refers to the signal ratio); conditions: VDR-UAS-bla HEK293T, beta-lactamase FRET ratio, 16 h
Procedure, shortened: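 After VDR-bla cells are plated and left 4 h at 37C, DMSO-dissolved compounds and 3 nM (final) calcitriol agonist are added. Incubation continues 16 h at 37C; FRET beta-lactamase substrate then develops 2 h at room temperature.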

[10] = qHTS assay to identify small molecule agonists of the NFkB signaling pathway (AID 1159509; active means well fitted curve in the direction sought with a large enough effect in the signal ratio in the repeat runs, not every such curve was filed as active; the % refers to the signal ratio); conditions: NFkB-bla ME-180 cells, beta-lactamase FRET ratio, 5 h; at 61 µM (top of the series)
Procedure, shortened: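 Agonist activity was read as beta-lactamase-driven FRET change (460 and 530 nm emission, 405 nm excitation) following 1.5 hr substrate loading at room temperature. Beforehand, ME-180 NFkB-bla reporter cells were treated with compounds for 5 hr at 37 C.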

[11] = qHTS assay to identify small molecule agonists of the NFkB signaling pathway - cell viability counter screen (AID 1159515; calls by dose curve; further: nearly all actives have a fitted effect of over 55% in size); conditions: NFkB-bla ME-180 viability, CellTiter-Glo luminescence, 5 h
Procedure, shortened: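 ME-180 NFkB-bla cells, 2,000/well; overnight attach; compound 5 hr, 37 C/5% CO2; LiveBLAzer substrate 1.5 hr RT; then CellTiter-Glo in same wells, 30 min RT, luminescence read.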

[12] = qHTS assay for small molecule agonists of the antioxidant response element (ARE) signaling pathway (AID 743202; active means well fitted activation curve with a large enough effect in the signal ratio in the repeat runs, not every such curve was filed as active; the % refers to the signal ratio); conditions: HepG2 ARE-bla reporter, beta-lactamase FRET, 16 h; at 73.3 µM (top of the series)
Procedure, shortened: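 After 16 hours of compound treatment at 37 C, HepG2 cells with a stably integrated ARE-driven beta-lactamase reporter were loaded 2 hours at room temperature with LiveBLAzer B/G FRET substrate and fluorescence intensity measured.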

[13] = qHTS assay for small molecule agonists of the antioxidant response element (ARE) signaling pathway - cell viability counter screen (AID 743203; calls by dose curve; further: nearly all actives have a fitted effect of over 55% in size); conditions: ARE-bla HepG2 viability, CellTiter-Glo luminescence, 16 h; at 73.3 µM (top of the series)
Procedure, shortened: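 Luminescence read-out (CellTiter-Glo, 30 min at room temperature) measured cell viability in the same wells as the ARE beta-lactamase reporter. HepG2 ARE-bla cells were treated with compounds for 16 hrs at 37C/5% CO2.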

[14] = molecular target: Peroxisome proliferator-activated receptor delta (Homo sapiens) (UniProt Q03181); assay: qHTS assay to identify small molecule agonists of the peroxisome proliferator-activated receptor delta (PPARd) signaling pathway (AID 743212; calls by dose curve); conditions: HEK293H PPARd-UAS-bla, beta-lactamase FRET ratio, 17 h; at 62.6 µM (top of the series)
Procedure, shortened: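 Beta-lactamase reporter readout: a ratiometric FRET signal from the LiveBLAzer substrate after 2 h at room temperature. Compound exposure at 37 °C in PPARδ-bla HEK293H cells driven by an upstream activator sequence.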

[15] = molecular target: Peroxisome proliferator-activated receptor delta (Homo sapiens) (UniProt Q03181); assay: qHTS assay to identify small molecule antagonists of the peroxisome proliferator-activated receptor delta (PPARd) signaling pathway (AID 743215; active means well fitted inhibition curve with a large enough effect in the signal ratio in the repeat runs, not every such curve was filed as active; the % refers to the signal ratio;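 further: cells stimulated with agonist L165041 at 300 nM final during compound exposure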); conditions: HEK293H PPARd-UAS-bla, beta-lactamase FRET ratio, antagonist, 17 h; at 62 µM (top of the series)
Procedure, shortened: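 HEK293H GeneBLAzer PPARd UAS-bla reporter cells; cpd + L165041 300 nM final, 17 h 37 C; LiveBLAzer B/G FRET substrate 2 h RT; fluorescence intensity read-out. Antagonist mode.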

[16] = molecular target: Bile acid receptor (Homo sapiens) (UniProt Q96RI1); assay: qHTS assay to identify small molecule antagonists of the farnesoid-X-receptor (FXR) signaling pathway (AID 743217; active means well fitted inhibition curve with a large enough effect in the signal ratio in the repeat runs, not every such curve was filed as active; the % refers to the signal ratio); conditions: HEK293T FXR-UAS-bla, beta-lactamase ratio, CDCA-stimulated, 16 h; at 62.6 µM (top of the series)
Procedure, shortened: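 Read-out: beta-lactamase FRET fluorescence (LiveBLAzer B/G substrate, 2 h, room temperature) in GeneBLAzer FXR-UAS-bla HEK 293T cells. Compounds were co-dosed with 50 uM chenodeoxycholic acid (final) and incubated 16 h at 37 °C.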

[17] = molecular target: Bile acid receptor (Homo sapiens) (UniProt Q96RI1); assay: qHTS assay to identify small molecule agonists of the farnesoid-X-receptor (FXR) signaling pathway (AID 743220; active means well fitted activation curve with a large enough effect in the signal ratio in the repeat runs, not every such curve was filed as active; the % refers to the signal ratio); conditions: HEK293T FXR-UAS-bla, beta-lactamase FRET ratio, 16 h; at 62.6 µM (top of the series)
[18] = qHTS assay to identify small molecule agonists of the vitamin D receptor (VDR) signaling pathway - cell viability counter screen (AID 743224); conditions: VDR-bla HEK293T viability, CellTiter-Glo luminescence, 16 h; at 62.6 µM (top of the series); further: nearly all actives have a fitted effect of over 50% in size
Procedure, shortened: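 Cytotoxicity counter screen: VDR-bla cells, 16 h compound exposure at 37C, 5% CO2; CellTiter-Glo luminescence, 30 min RT, same wells as bla read.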

[19] = qHTS assay to identify small molecule antagonists of the vitamin D receptor (VDR) signaling pathway - cell viability counter screen (AID 743225); conditions: VDR-bla HEK293T viability, CellTiter-Glo luminescence, 16 h; at 61 µM (top of the series); further: nearly all actives have a fitted effect of over 50% in size
Procedure, shortened: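 Cytotoxicity toward the VDR-bla HEK 293T line was scored by ATP-based CellTiter-Glo luminescence, read in the wells already used for the beta-lactamase readout after 16 h compound treatment under 3 nM 1-alpha,25-dihydroxyvitamin D3 stimulation.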

[20] = molecular target: Peroxisome proliferator-activated receptor gamma (Homo sapiens) (UniProt P37231); assay: qHTS assay to identify small molecule antagonists of the peroxisome proliferator-activated receptor gamma (PPARg) signaling pathway (AID 743191; calls by dose curve; further: nearly all actives have a fitted effect of over 30% in size); conditions: HEK293H PPARg-UAS-bla, beta-lactamase ratio, antagonist, 17 h; at 62.6 µM (top of the series) unless noted
Procedure, shortened: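 Beta-lactamase reporter under UAS control in HEK293H PPARg-bla cells; compound treatment 17 h at 37C. Read-out: fluorescence intensity after 1 h room-temperature incubation with LiveBLAzer B/G FRET substrate.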
On the % scale 0 is the no-effect control and ±100 the full control effect.

O=[N+]([O-])c1ccccc1[N+](=O)[O-]
inactive: activity change, negative = cytotoxicity ([1]; at 62.6 µM (top of the series)) -25.4% | activity change, negative = cytotoxicity ([1]; at 81.1 µM (top of the series)) -4.21% | activity change, negative = cytotoxicity ([2]; at 62.6 µM (top of the series)) 5% | activity change, negative = cytotoxicity ([2]; at 81.1 µM (top of the series)) -2.26% | activation [3] 2.43% | activity change, negative = cytotoxicity ([4]; at 62.6 µM (top of the series)) -1.56% | activity change, negative = cytotoxicity ([4]; at 81.1 µM (top of the series)) -5.57% | viability change, negative = cytotoxic ([5]; at 62 µM (top of the series)) 5.13% | viability change, negative = cytotoxic ([5]; at 80.4 µM (top of the series)) -18.7% | viability change, negative = cytotoxic ([6]; at 62.6 µM (top of the series)) 5.42% | viability change, negative = cytotoxic ([6]; at 81.1 µM (top of the series)) -12.1% | activity change, negative = cytotoxicity ([7]; at 62.6 µM (top of the series)) -2.28% | activity change, negative = cytotoxicity ([7]; at 81.1 µM (top of the series)) -4.59% | activation ([8]; at 63.5 µM (top of the series)) -3.21% | activation ([8]; at 81.1 µM (top of the series)) -16.6% | activity change, negative = inhibition ([9]; at 61 µM (top of the series)) 5.49% | activity change, negative = inhibition ([9]; at 78.8 µM (top of the series)) -17.1% | activation [10] -0.486% | activity, negative = cytotoxic ([11]; at 61 µM (top of the series)) 13.4% | activity, negative = cytotoxic ([11]; at 78.8 µM (top of the series)) 16.9%

CCOC(=O)N1CCC(=O)CC1
inactive: activity change, negative = cytotoxicity ([1]; at 62.6 µM (top of the series)) 5.21% | activation [12] -2.66% | viability change, negative = cytotoxic [13] -2.84% | activity change, negative = cytotoxicity ([2]; at 62.6 µM (top of the series)) -1% | activation [3] 1.2% | activity change, negative = cytotoxicity ([4]; at 62.6 µM (top of the series)) 3.63% | activation [14] 1.95% | viability change, negative = cytotoxic ([5]; at 62 µM (top of the series)) -9.58% | ratio activity, negative = inhibition [15] -0.649% | activity change, negative = inhibition [16] 8.01% | viability change, negative = cytotoxic ([6]; at 62.6 µM (top of the series)) 18.3% | activation [17] -0.394% | activity change, negative = cytotoxicity ([7]; at 62.6 µM (top of the series)) 2.1% | activation ([8]; at 63.5 µM (top of the series)) 11.2% | activity change, negative = inhibition ([9]; at 61 µM (top of the series)) -4.99% | activity change, negative = cytotoxicity [18] 15.5% | viability change, negative = cytotoxic [19] 8.39% | activation [10] 0.362% | activity, negative = cytotoxic ([11]; at 61 µM (top of the series)) 1.76%

CCC(=O)N(c1ccccc1)C1CCNCC1
inactive: ratio activity, negative = inhibition [20] -16% | activity change, negative = cytotoxicity ([1]; at 62.6 µM (top of the series)) 2.59% | activation [12] -13.8% | viability change, negative = cytotoxic [13] -2.49% | activity change, negative = cytotoxicity ([2]; at 62.6 µM (top of the series)) -16.1% | activation [3] -1.66% | activity change, negative = cytotoxicity ([4]; at 62.6 µM (top of the series)) -2.17% | activation [14] 0.525% | viability change, negative = cytotoxic ([5]; at 62 µM (top of the series)) -26.4% | ratio activity, negative = inhibition [15] -15.1% | activity change, negative = inhibition [16] -12.1% | viability change, negative = cytotoxic ([6]; at 62.6 µM (top of the series)) 1.42% | activation [17] -0.508% | activity change, negative = cytotoxicity ([7]; at 62.6 µM (top of the series)) 5.72% | activation ([8]; at 63.5 µM (top of the series)) 9.02% | activity change, negative = inhibition ([9]; at 61 µM (top of the series)) -10.1% | activity change, negative = cytotoxicity [18] -0.811% | viability change, negative = cytotoxic [19] -3.33% | activation [10] 0.455% | activity, negative = cytotoxic ([11]; at 61 µM (top of the series)) 0.892%
